In paper PMC5541792, “Simultaneous Determination of 11 Compounds in Gualou Guizhi Granule and Pharmacokinetics Study by UPLC-MS/MS” (Journal of Analytical Methods in Chemistry, 2017):

Legend:
[1] = Stability of analytes in rat plasma samples (method validation); format: in vitro ADME; conditions: n = 6; for Autosampler stability (24 h) Mean: 4°C for 24 h; for Stability (24 h at room temperature) Mean: 25°C for 24 h; for Freeze-thaw stability (3 cycles) Mean: three freeze-thaw cycles at −80°C
Procedure: Stability of the analytes from plasma samples was performed by determining three different concentrations (low, middle, and high samples) in six replicates under different conditions. It included short-term stability which was assessed by keeping samples at room temperature (25°C) for 24 h, stability which was measured using samples stored at 4°C for 24 h, and freeze-thaw stability that was determined after three freeze-thaw cycles at −80°C.

[2] = Pharmacokinetic study in rats after oral administration of GLGZG (UPLC-MS/MS of plasma); format: in vivo; conditions: rat plasma, male SD rats, oral GLGZG 3.6 g·(kg·day)^−1, n = 6
Procedure: Chromatographic separation was performed on an Waters CORTECS C18 (2.1 × 100 mm, 1.6 μm) with the column temperature at 45°C. The mobile phase was composed of 0.1% formic acid in water (A) and acetonitrile (B) with a gradient program (0–0.5 min from 8% to 10% B; 0.5–2.5 min from 10% to 15% B; 2.5–4.0 min from 15% to 60% B; 4.0–5.0 min from 60% to 95% B; 5.0–6.5 min 95% B). The flow rate was 0.25 mL/min and the injection volume was 1 μL.
Mass spectrometry was operated using a Waters (Milford, MA) Xevo TQMS with an electrospray ion source (ESI) in the negative ion multiple reaction monitoring (MRM) mode. The other detailed MS parameters were as follows: drying gas: N2 (purity of 99.9%), 15 L/min, nebulizing gas: 50 L/min, capillary voltage: 2.5 kv.
Plasma samples (100 μL of plasma) and IS working solutions (10 μL of swertiamarin, kaempferol-3-O-rutinoside, and ginsenoside Rb1) were combined and briefly vortex-mixed for 3 min followed by the addition of 4-fold acetonitrile. Then the mixture was centrifuged at 12000 rpm for 10 min. The supernatant was transferred to a clean tube and concentrated up to dryness; the residue was dissolved in 100 μL 50% methanol. Finally, 1 μL aliquot was injected into UPLC-MS/MS system for analysis.
Six male SD rats, weighing 250 ± 20 g, were provided by Experimental Animal Research Center of Fujian TCM University (Fuzhou, China). And they were housed at controlled environmental conditions (temperature: 23 ± 2°C, relative humidity: 55 ± 10%) with free access to standard laboratory food and water. The rats were fasted for 12 h but with access to water before being given GLGZG (3.6 g·(kg·day)^−1). Blood samples of 0.3 mL were collected in heparin containing tubes from epicanthic veins of rats by capillary tube before dose (0 h) and at 5 min, 10 min, 20 min, 0.5 h, 1 h, 1.5 h, 2 h, 3 h, 6 h, 9 h, and 12 h. Then they were centrifuged at 12000 rpm for 10 min. The supernatant liquor was collected and frozen at −20°C until use.
The validated UPLC-MS/MS method was successfully applied to the PK studies of eleven analytes following oral administration of GLGZG to individual male rats (n = 6). The main pharmacokinetic parameters were summarized in Table 8 and the mean plasma concentration-time profiles of the eleven analytes were illustrated in Figure 3.

[3] = middle QC nominal concentration

Compound | Autosampler stability (24 h) Mean ([1]; low QC nominal concentration) | Stability (24 h at room temperature) Mean ([1]; high QC nominal concentration) | Stability (24 h at room temperature) Mean ([1]; low QC nominal concentration) | Stability (24 h at room temperature) Mean [1, 3] | AUC(0–∞) [2] | MRT(0–∞) [2] | T 1/2z [2] | T max [2] | Vz/F [2] | Autosampler stability (24 h) Mean ([1]; high QC nominal concentration) | Autosampler stability (24 h) Mean [1, 3] | Freeze-thaw stability (3 cycles) Mean ([1]; high QC nominal concentration) | Freeze-thaw stability (3 cycles) Mean ([1]; low QC nominal concentration) | Freeze-thaw stability (3 cycles) Mean [1, 3]
O=C(/C=C/c1ccc(O[C@@H]2O[C@H](CO)[C@@H](O)[C@H](O)[C@H]2O)cc1)c1ccc(O)cc1O [Isoliquiritin, isoliquiritin] | 105.18% | 98.59% | 100.74% | – | – | – | – | – | – | – | – | – | – | –
O=C1C[C@@H](c2ccc(O[C@@H]3O[C@H](CO)[C@@H](O)[C@H](O)[C@H]3O)cc2)Oc2cc(O)ccc21 [Liquiritin, liquiritin] | 112.48% | – | – | 110.81% | – | – | – | – | – | – | – | – | – | –
isoliquiritin apioside | 102.25% | 98.59% | 101.13% | 101.45% | 18.90 ± 3.20 mg·L/min | 5.2583 ± 0.7327 h | 4.077 ± 0.5693 h | 0.5833 ± 0.2042 h | 378.57 ± 56.73 L/kg | 112.48% | 106.88% | 96.66% | 109.53% | 93.01%
liquiritin apioside [Liquirtin apioside] | 95.66% | 104.43% | 111.24% | 96.07% | 44.70 ± 9.12 mg·L/min | 5.3248 ± 1.029 h | 3.9105 ± 1.012 h | 0.5 ± 0 h | 152.93 ± 31.84 L/kg | 105.23% | 90.88% | 94.78% | 107.20% | 93.95%
